The test system of one assay is Rattus norvegicus. The experiment in a line: Analgesic activity in iv dosed Sprague-Dawley rat assessed as increase in pain latency measured up to 60 mins by tail-flick assay.
For the next assay, the target named is Nociceptin receptor (Homo sapiens, UniProt P41146). The experiment in a line: Displacement of [3H]-nociceptin/orphanin FQ from recombinant ORL1 receptor (unknown origin) expressed in CHO cell membranes measured after 1 hr by scintillation counter method. A general note: In a radioligand displacement assay an active substance lowers the binding of a labelled ligand.

Chains of the proteins cited; added tags and fusions are not shown.
UniProt P41146, whole entry: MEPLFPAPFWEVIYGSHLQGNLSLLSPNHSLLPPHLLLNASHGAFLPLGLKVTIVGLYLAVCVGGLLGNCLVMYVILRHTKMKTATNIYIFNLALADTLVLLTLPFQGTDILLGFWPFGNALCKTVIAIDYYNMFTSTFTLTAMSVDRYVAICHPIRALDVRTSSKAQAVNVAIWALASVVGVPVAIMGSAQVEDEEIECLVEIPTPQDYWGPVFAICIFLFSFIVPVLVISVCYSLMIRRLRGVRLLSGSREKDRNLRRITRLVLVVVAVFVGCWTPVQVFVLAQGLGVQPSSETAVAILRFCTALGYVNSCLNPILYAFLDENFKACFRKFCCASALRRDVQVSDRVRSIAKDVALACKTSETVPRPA
UniProt P35372, whole entry: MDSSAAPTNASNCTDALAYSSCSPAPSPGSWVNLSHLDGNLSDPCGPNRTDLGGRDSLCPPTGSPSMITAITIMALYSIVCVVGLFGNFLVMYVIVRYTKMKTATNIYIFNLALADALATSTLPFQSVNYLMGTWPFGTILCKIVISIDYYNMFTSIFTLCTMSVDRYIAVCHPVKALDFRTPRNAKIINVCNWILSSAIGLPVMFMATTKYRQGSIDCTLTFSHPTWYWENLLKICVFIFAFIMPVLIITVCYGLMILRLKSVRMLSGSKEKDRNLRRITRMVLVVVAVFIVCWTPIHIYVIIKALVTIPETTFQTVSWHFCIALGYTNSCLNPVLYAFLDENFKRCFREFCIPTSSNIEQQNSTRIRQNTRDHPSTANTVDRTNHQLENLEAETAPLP

In a further assay the target is Mu-type opioid receptor (Homo sapiens, UniProt P35372). Put plainly: Displacement of [3H]-naloxone human mu-opioid receptor expressed in CHO-K1 cell membranes measured after 90 mins by beta-counter method.

As a reminder, the ED50 is the dose at which the effect has come halfway, by size or by number of responders. As for `COC1(CCN2CC3(CCC(c4cccs4)(N(C)C)CC3)CC2=O)CCC1` (centres undefined), the ED50 in the assay with Rattus norvegicus was found to be 0.7 µg/kg.
The Ki is the dissociation constant of the complex between target and ligand, obtained from inhibition or displacement. On to `CN(C)C1(c2ccccc2)CCC2(CCN(C(=O)CC3CCC3)C2)CC1` (centres undefined), for which the Ki on Nociceptin receptor stood at 400 pM; on Mu-type opioid receptor it was 600 pM. Further, in the assay on Rattus norvegicus, the ED50 stood at 4.17 µg/kg.

The values are drawn from ChEMBL document CHEMBL4431392, “Treatment of Pain with Spirocylic Cyclohexane Derivatives Having Dual Specificity for ORL-1 and μ-Opioid Receptors” (2016).
